What all share (assay type): cell-based
Assay [1] concerns the target Substance-P receptor (Homo sapiens, UniProt P25103, Q165A). The experiment in a line: Binding affinity against Gln165Ala mutant type human Tachykinin receptor 1 expressed in CHO cells was measured by its ability to displace [125I]- Tyr-8 substance P.
Assay [2] addresses T1, Substance-P receptor (Homo sapiens, UniProt P25103). The assay is described as follows: Binding affinity against human Tachykinin receptor 1 expressed in CHO cells was measured by its ability to displace [125I]- Tyr-8 substance P.
Assay [3] concerns the target T1, Substance-P receptor. The experiment in a line: Binding affinity against wild type human Tachykinin receptor 1 expressed in CHO cells was measured by its ability to displace [125I]- Tyr-8 substance P. The method, boiled down: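 Wild-type and Gln165Ala mutant human NK1 receptors expressed in CHO cells were tested in the same binding conditions. Ligand displacement of [125I]Tyr8-substance P was compared between the two receptors to give the affinity ratio.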

Amino acid sequences for entries named in this document (tags omitted).
UniProt P25103, whole entry Q165A: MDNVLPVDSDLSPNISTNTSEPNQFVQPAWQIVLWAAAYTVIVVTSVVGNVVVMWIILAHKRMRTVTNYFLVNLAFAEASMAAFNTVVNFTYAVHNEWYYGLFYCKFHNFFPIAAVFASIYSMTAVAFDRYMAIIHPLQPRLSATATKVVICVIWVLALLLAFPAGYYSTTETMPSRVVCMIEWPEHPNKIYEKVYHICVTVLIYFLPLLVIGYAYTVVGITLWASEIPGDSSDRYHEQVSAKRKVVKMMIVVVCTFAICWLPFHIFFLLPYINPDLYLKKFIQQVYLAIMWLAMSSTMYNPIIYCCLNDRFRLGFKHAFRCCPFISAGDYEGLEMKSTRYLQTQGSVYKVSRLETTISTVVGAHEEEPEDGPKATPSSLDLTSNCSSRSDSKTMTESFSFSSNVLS
UniProt P25103, whole entry: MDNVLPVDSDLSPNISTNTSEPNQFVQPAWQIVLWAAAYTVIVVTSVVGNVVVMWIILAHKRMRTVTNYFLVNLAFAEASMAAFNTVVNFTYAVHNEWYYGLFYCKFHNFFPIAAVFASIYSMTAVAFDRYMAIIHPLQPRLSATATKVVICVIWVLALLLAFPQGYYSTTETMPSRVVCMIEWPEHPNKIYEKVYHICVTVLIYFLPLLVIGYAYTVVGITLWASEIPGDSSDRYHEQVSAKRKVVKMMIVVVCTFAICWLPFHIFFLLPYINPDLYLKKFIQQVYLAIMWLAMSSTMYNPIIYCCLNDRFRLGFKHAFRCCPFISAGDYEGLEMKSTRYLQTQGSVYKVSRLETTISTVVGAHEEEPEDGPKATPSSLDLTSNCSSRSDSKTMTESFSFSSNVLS

Structures are written as SMILES.

As usually defined, the IC50 is the concentration needed to halve the response being measured. Low values mean inhibition by little substance, high ones a need for much substance.

`CC(=O)N[C@@H](Cc1c[nH]c2ccccc12)C(=O)CCc1cc(C(F)(F)F)cc(C(F)(F)F)c1`: the values for the IC50 on Substance-P receptor [1], at Substance-P receptor [2] and at Substance-P receptor [3] were 10 nM, 3.1 nM and 2.2 nM, respectively.

Regarding `CN(C)CCC(=O)N[C@@H](Cc1c[nH]c2ccccc12)C(=O)CCc1cc(C(F)(F)F)cc(C(F)(F)F)c1`, the half-inhibitory concentration (IC50) on Substance-P receptor [2] was 1.8 nM.

On Substance-P receptor [2], `CN(C)CC(=O)N[C@@H](Cc1c[nH]c2ccccc12)C(=O)CCc1cc(C(F)(F)F)cc(C(F)(F)F)c1` yielded an IC50 of 5 nM.

The values are drawn from ChEMBL document CHEMBL1128269, “Synthesis and biological evaluation of NK1 antagonists derived from L-tryptophan” (J Med Chem, 1995).
